{
  "source": "paper PMC6585789",
  "about": "(American Journal of Hematology, 2017)",
  "system": "FLT3‐ITD–mutated AML",
  "test": "Efficacy assessments: relapse, survival, treatment duration and disposition",
  "type": "in vivo, human",
  "data": [
    {"molecule": "CC(C)(C)c1cc(NC(=O)Nc2ccc(-c3cn4c(n3)sc3cc(OCCN5CCOCC5)ccc34)cc2)no1.Cl.Cl", "note": "[quizartinib, N‐(5‐tert‐butyl‐isoxazol‐3‐yl)‐N′‐{4‐[7‐(2‐morpholin‐4‐yl‐ethoxy)imidazo[2,1‐b][1, 3]benzothiazol‐2‐yl]phenyl}urea dihydrochloride]", "values": [
      {"measurement": "Difference in OS between treatment groups", "setting": "40 mg/d vs 60 mg/d", "value": "no significant difference"},
      {"measurement": "Subjects alive at end of study", "setting": "13 subjects", "value": 77, "unit": "%"},
      {"measurement": "Subjects surviving >2 years (104 weeks)", "setting": "13 subjects", "value": 31, "unit": "%"},
      {"measurement": "Subjects surviving ≥50 weeks", "setting": "13 subjects", "value": 69, "unit": "%"},
      {"measurement": "Subjects who discontinued due to disease progression", "setting": "13 subjects", "value": 8, "unit": "%"},
      {"measurement": "Subjects who had died at the end of the study", "setting": "13 subjects, 1 disease progression, 1 peritoneal hemorrhage, 1 unknown causes", "value": 3},
      {"measurement": "Subjects with relapse", "setting": "13 subjects, relapse in the first cycle", "value": 8, "unit": "%"},
      {"measurement": "Outcome of transplant: Continued CR", "setting": "starting dose 40 mg, N = 7", "value": 6, "unit": "n"},
      {"measurement": "Outcome of transplant: Relapse", "setting": "starting dose 40 mg, N = 7", "value": 1, "unit": "n"},
      {"measurement": "Outcome of transplant: Continued CR", "setting": "starting dose 60 mg, N = 6", "value": 6, "unit": "n"},
      {"measurement": "Outcome of transplant: Continued CR", "setting": "total N = 13", "value": "12 (92) n (%)"},
      {"measurement": "Outcome of transplant: Relapse", "setting": "total N = 13", "value": "1 (8) n (%)"}
    ]}
  ]
}
